Several values for one entry are separate records, joined by “and”; a condition that tells them apart may be missing. Equal entries are not always repeated.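 48-hour exposure; five concentrations; linearly interpolated endpoints. Here, GI50 denotes the concentration required for 50% inhibition of growth. TGI is the concentration that stops growth completely.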
Assays:
Assay in all cases: DTP human tumour cell line panel, 48 h
786-0 renal = system: 786-0 renal
A498 renal = system: A498 renal
A549 NSCLC = system: A549 NSCLC
ACHN renal = system: ACHN renal
BT-549 breast = system: BT-549 breast
CCRF-CEM leukemia = system: CCRF-CEM leukemia
COLO 205 colon = system: COLO 205 colon
EKVX NSCLC = system: EKVX NSCLC
HCC-2998 colon = system: HCC-2998 colon
HCT-116 colon = system: HCT-116 colon
HCT-15 colon = system: HCT-15 colon
HL-60(TB) leukemia = system: HL-60(TB) leukemia
HOP-62 NSCLC = system: HOP-62 NSCLC
HOP-92 NSCLC = system: HOP-92 NSCLC
HS 578T breast = system: HS 578T breast
HT29 colon = system: HT29 colon
IGROV1 ovarian = system: IGROV1 ovarian
K-562 leukemia = system: K-562 leukemia
KM12 colon = system: KM12 colon
LOX IMVI melanoma = system: LOX IMVI melanoma
M14 melanoma = system: M14 melanoma
MALME-3M melanoma = system: MALME-3M melanoma
MCF7 breast = system: MCF7 breast
MDA-MB-231 breast = system: MDA-MB-231 breast
MDA-MB-435 = system: MDA-MB-435
MOLT-4 leukemia = system: MOLT-4 leukemia
NCI-H226 lung = system: NCI-H226 lung
NCI-H23 lung = system: NCI-H23 lung
NCI-H322M lung = system: NCI-H322M lung
NCI-H460 lung = system: NCI-H460 lung
NCI-H522 lung = system: NCI-H522 lung
NCI/ADR-RES ovarian = system: NCI/ADR-RES ovarian
OVCAR-3 ovarian = system: OVCAR-3 ovarian
OVCAR-4 ovarian = system: OVCAR-4 ovarian
OVCAR-5 ovarian = system: OVCAR-5 ovarian
OVCAR-8 ovarian = system: OVCAR-8 ovarian
PC-3 prostate = system: PC-3 prostate
RPMI-8226 leukemia = system: RPMI-8226 leukemia
RXF 393 renal = system: RXF 393 renal
SF-268 CNS = system: SF-268 CNS
SF-295 CNS = system: SF-295 CNS
SF-539 CNS = system: SF-539 CNS
SK-MEL-2 melanoma = system: SK-MEL-2 melanoma
SK-MEL-28 melanoma = system: SK-MEL-28 melanoma
SK-MEL-5 melanoma = system: SK-MEL-5 melanoma
SK-OV-3 ovarian = system: SK-OV-3 ovarian
SN12C renal = system: SN12C renal
SNB-19 CNS = system: SNB-19 CNS
SNB-75 CNS = system: SNB-75 CNS
SR leukemia = system: SR leukemia
SW-620 colon = system: SW-620 colon
T-47D breast = system: T-47D breast
TK-10 renal = system: TK-10 renal
U251 CNS = system: U251 CNS
UACC-257 melanoma = system: UACC-257 melanoma
UACC-62 melanoma = system: UACC-62 melanoma
UO-31 renal = system: UO-31 renal

SMILES: CC1=C[C@H]2O[C@@H]3C[C@H]4OC(=O)/C=C\C=C\[C@H]([C@@H](C)O)OCC[C@@H](C)[C@H](O)C(=O)OC[C@@]2(CC1)[C@]4(C)[C@]31CO1
- GI50 (786-0 renal): 2.67 nM
- TGI (786-0 renal): 8.01 nM
- GI50 (A498 renal): 2.5 nM and 1.65 nM
- TGI (A498 renal): 6.94 nM and 3.9 nM
- GI50 (A549 NSCLC): 2.95 nM
- TGI (A549 NSCLC): 9.27 nM
- GI50 (ACHN renal): 2.9 nM
- TGI (ACHN renal): 9.15 nM
- GI50 (BT-549 breast): 2.79 nM
- TGI (BT-549 breast): 9.11 nM
- GI50 (CCRF-CEM leukemia): 5.59 nM
- GI50 (COLO 205 colon): 3.31 nM and 2.49 nM
- TGI (COLO 205 colon): 5.71 nM
- GI50 (EKVX NSCLC): 1.94 nM
- TGI (EKVX NSCLC): 8.44 nM
- GI50 (HCC-2998 colon): 3.35 nM and < 1.43 nM
- TGI (HCC-2998 colon): 4.64 nM
- GI50 (HCT-116 colon): 3.12 nM and < 1.43 nM
- TGI (HCT-116 colon): 2.96 nM
- GI50 (HCT-15 colon): 3.12 nM and < 1.43 nM
- TGI (HCT-15 colon): 8.47 nM
- GI50 (HL-60(TB) leukemia): 2.91 nM and < 1.43 nM
- TGI (HL-60(TB) leukemia): 8.6 nM and 2.6 nM
- GI50 (HOP-62 NSCLC): 4.94 nM and 1.58 nM
- TGI (HOP-62 NSCLC): 6.28 nM
- GI50 (HOP-92 NSCLC): 1.95 nM
- TGI (HOP-92 NSCLC): 8.11 nM
- GI50 (HS 578T breast): 2.59 nM
- TGI (HS 578T breast): 8.37 nM
- GI50 (HT29 colon): 3.48 nM and 2.09 nM
- TGI (HT29 colon): 7.26 nM
- GI50 (IGROV1 ovarian): 3.58 nM and 1.66 nM
- TGI (IGROV1 ovarian): 9.22 nM
- GI50 (K-562 leukemia): 3.55 nM and < 1.43 nM
- TGI (K-562 leukemia): 7.47 nM
- GI50 (KM12 colon): 2.99 nM and 2.26 nM
- TGI (KM12 colon): 11.8 nM
- GI50 (LOX IMVI melanoma): 2.66 nM and < 1.43 nM
- TGI (LOX IMVI melanoma): 8.61 nM and 4.51 nM
- GI50 (M14 melanoma): 4.28 nM and 1.45 nM
- TGI (M14 melanoma): 3.81 nM
- GI50 (MALME-3M melanoma): 2.36 nM and < 1.43 nM
- TGI (MALME-3M melanoma): 7.29 nM and 1.5 nM
- GI50 (MCF7 breast): 3.6 nM and < 1.43 nM
- TGI (MCF7 breast): 10.9 nM
- GI50 (MDA-MB-231 breast): 3.63 nM
- TGI (MDA-MB-231 breast): 9.69 nM
- GI50 (MDA-MB-435): 3.67 nM and 1.92 nM
- TGI (MDA-MB-435): 4.35 nM
- GI50 (MOLT-4 leukemia): 3.84 nM and < 1.43 nM
- TGI (MOLT-4 leukemia): 1.43 nM
- GI50 (NCI-H226 lung): 2.74 nM and < 1.43 nM
- TGI (NCI-H226 lung): 7.61 nM and 6.36 nM
- GI50 (NCI-H23 lung): 2.74 nM
- TGI (NCI-H23 lung): 9.56 nM
- GI50 (NCI-H322M lung): 3.48 nM
- TGI (NCI-H322M lung): 12.8 nM
- GI50 (NCI-H460 lung): 2.77 nM and < 1.43 nM
- TGI (NCI-H460 lung): 8.14 nM and 5.01 nM
- GI50 (NCI-H522 lung): 2.4 nM and < 1.43 nM
- TGI (NCI-H522 lung): 6.71 nM and 1.93 nM
- GI50 (NCI/ADR-RES ovarian): 4.28 nM
- TGI (NCI/ADR-RES ovarian): 22.7 nM
- GI50 (OVCAR-3 ovarian): 2.58 nM and < 1.43 nM
- TGI (OVCAR-3 ovarian): 9.2 nM and 6.43 nM
- GI50 (OVCAR-4 ovarian): 2.76 nM and < 1.43 nM
- TGI (OVCAR-4 ovarian): 5.17 nM
- GI50 (OVCAR-5 ovarian): 2.87 nM
- TGI (OVCAR-5 ovarian): 8.72 nM
- GI50 (OVCAR-8 ovarian): 9.26 nM and 3.4 nM
- TGI (OVCAR-8 ovarian): 11.7 nM
- GI50 (PC-3 prostate): 2.64 nM
- TGI (PC-3 prostate): 9.7 nM
- GI50 (RPMI-8226 leukemia): 3.87 nM and < 1.43 nM
- TGI (RPMI-8226 leukemia): 6.24 nM
- GI50 (RXF 393 renal): 6.89 nM and < 1.43 nM
- TGI (RXF 393 renal): 2.82 nM
- GI50 (SF-268 CNS): 6.51 nM and 3.96 nM
- TGI (SF-268 CNS): 14 nM
- GI50 (SF-295 CNS): 2.85 nM
- TGI (SF-295 CNS): 7.42 nM
- GI50 (SF-539 CNS): 9.66 nM and 2.05 nM
- TGI (SF-539 CNS): 6.12 nM
- GI50 (SK-MEL-2 melanoma): 2.96 nM
- TGI (SK-MEL-2 melanoma): 7.15 nM
- GI50 (SK-MEL-28 melanoma): 3.33 nM and < 1.43 nM
- TGI (SK-MEL-28 melanoma): 4.12 nM
- GI50 (SK-MEL-5 melanoma): 2.11 nM and < 1.43 nM
- TGI (SK-MEL-5 melanoma): 5.11 nM and 3.07 nM
- GI50 (SK-OV-3 ovarian): 2.96 nM
- TGI (SK-OV-3 ovarian): 8.99 nM
- GI50 (SN12C renal): 3.26 nM
- TGI (SN12C renal): 11.2 nM
- GI50 (SNB-19 CNS): 7.25 nM and 2.19 nM
- TGI (SNB-19 CNS): 8.7 nM
- GI50 (SNB-75 CNS): 2.05 nM
- TGI (SNB-75 CNS): 4.02 nM
- GI50 (SR leukemia): 3.56 nM and < 1.43 nM
- TGI (SR leukemia): 5.32 nM
- GI50 (SW-620 colon): 4.98 nM and 2.53 nM
- TGI (SW-620 colon): 13.1 nM
- GI50 (T-47D breast): 2.6 nM
- TGI (T-47D breast): 8.48 nM
- GI50 (TK-10 renal): 3.24 nM
- TGI (TK-10 renal): 9.78 nM
- GI50 (U251 CNS): 5.69 nM and 2.79 nM
- TGI (U251 CNS): 9.94 nM
- GI50 (UACC-257 melanoma): 9.15 nM and 2.65 nM
- TGI (UACC-257 melanoma): 7.78 nM
- GI50 (UACC-62 melanoma): 2.4 nM
- TGI (UACC-62 melanoma): 4.98 nM
- GI50 (UO-31 renal): 2.4 nM
- TGI (UO-31 renal): 8.3 nM

— PubChem BioAssay (NCI)
